## Cyclic peptide permeability, from CycPeptMPDB

Collected by the curators of CycPeptMPDB (Li et al. 2023) from Kelly et al. 2021, doi:10.1021/jacs.0c06115.

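Lipid, pH, incubation time, direction and concentration are not recorded in the data file. Other peptides of the study may be missing here. Entries at the database's floor value (log10 P of -10) are not listed.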

PAMPA measures passive passage through an artificial lipid membrane. Permeability is given as log10 of P in cm/s; higher (less negative) is more permeable.

Listed for CCC[C@H]1NC(=O)[C@@H](NC(=O)[C@@H](CC(C)C)N(C)C(=O)[C@@H]2CCCN2C(C)=O)[C@@H](C)OC(=O)[C@@H]2CCCN2C(=O)[C@H](CC(C)C)NC(=O)[C@@H](C)N(C)C(=O)[C@@H](Cc2ccc(F)cc2)NC(=O)[C@H](Cc2ccc(OC)cc2)NC1=O: PAMPA -5.75 (log10 cm/s).
Listed for CCC[C@H]1NC(=O)[C@@H](NC(=O)[C@@H](CC(C)C)N(C)C(=O)[C@@H]2CCCN2C(C)=O)[C@@H](C)OC(=O)[C@@H]2CCCN2C(=O)[C@H](CC(C)C)NC(=O)[C@@H](C)N(C)C(=O)[C@@H](Cc2cccc3ccccc23)NC(=O)[C@H](Cc2ccc(OC)cc2)NC1=O: PAMPA -5.84 (log10 cm/s).
Listed for CC(=O)N1CCC[C@H]1C(=O)N[C@@H]1C(=O)N(C)[C@H](CC(C)C)C(=O)N(C)[C@@H](CC(C)C)C(=O)N(C)[C@@H](CC(C)C)C(=O)N(C)[C@H](CC(C)C)C(=O)N[C@@H](C)C(=O)N[C@@H](CC(C)C)C(=O)N2CCC[C@@H]2C(=O)O[C@@H]1C: PAMPA -5.80 (log10 cm/s).
Listed for CCC[C@@H]1NC(=O)[C@@H](CC)NC(=O)[C@@H](NC(=O)[C@@H](CC(C)C)N(C)C(=O)[C@@H]2CCCN2C(C)=O)[C@@H](C)OC(=O)[C@@H]2CCCN2C(=O)[C@H](CC(C)C)NC(=O)[C@@H](C)N(C)C(=O)[C@@H](Cc2cccc3ccccc23)NC1=O: PAMPA -5.62 (log10 cm/s).
Listed for CC(=O)N[C@@H]1C(=O)N2CCC[C@H]2C(=O)N(C)[C@H](CC(C)C)C(=O)N[C@H](CC(C)C)C(=O)N(C)[C@@H](CC(C)C)C(=O)N[C@H](CC(C)C)C(=O)N(C)[C@@H](C)C(=O)N[C@@H](CC(C)C)C(=O)N2CCC[C@@H]2C(=O)O[C@@H]1C: PAMPA -5.93 (log10 cm/s).
Listed for CC(=O)N1CCC[C@H]1C(=O)N(C)[C@H](CC(C)C)C(=O)N[C@@H]1C(=O)N[C@H](CC(C)C)C(=O)N[C@@H](Cc2ccc(F)cc2)C(=O)N[C@H](CC2CCCCC2)C(=O)N(C)[C@H](C)C(=O)N[C@@H](CC(C)C)C(=O)N2CCC[C@H]2C(=O)O[C@@H]1C: PAMPA -6.85 (log10 cm/s).
Listed for CCC[C@H]1NC(=O)[C@@H](NC(=O)[C@@H](CC(C)C)N(C)C(=O)[C@@H]2CCCN2C(C)=O)[C@@H](C)OC(=O)[C@@H]2CCCN2C(=O)[C@H](CC(C)C)NC(=O)[C@@H](C)N(C)C(=O)[C@@H](CC2CCCCC2)NC(=O)[C@H](Cc2ccc(F)cc2)NC1=O: PAMPA -6.03 (log10 cm/s).
Listed for CC(=O)N1CCC[C@H]1C(=O)N[C@@H]1C(=O)N[C@H](CC(C)C)C(=O)N(C)[C@@H](CC(C)C)C(=O)N(C)[C@@H](CC(C)C)C(=O)N[C@H](CC(C)C)C(=O)N[C@H](C)C(=O)N[C@@H](CC(C)C)C(=O)N2CCC[C@@H]2C(=O)O[C@@H]1C: PAMPA -4.96 (log10 cm/s).
Listed for CCC[C@@H]1NC(=O)[C@@H](CC(C)C)NC(=O)[C@@H](NC(=O)[C@@H](CC(C)C)N(C)C(=O)[C@@H]2CCCN2C(C)=O)[C@@H](C)OC(=O)[C@@H]2CCCN2C(=O)[C@H](CC(C)C)NC(=O)[C@@H](C)N(C)C(=O)[C@@H](Cc2ccc(F)c(F)c2)NC1=O: PAMPA -5.42 (log10 cm/s).
Listed for CCC[C@H]1NC(=O)[C@H](Cc2ccc(F)cc2)NC(=O)[C@@H](CC(C)C)NC(=O)[C@@H](NC(=O)[C@@H](CC(C)C)N(C)C(=O)[C@@H]2CCCN2C(C)=O)[C@@H](C)OC(=O)[C@@H]2CCCN2C(=O)[C@H](CC(C)C)NC(=O)[C@@H](C)N(C)C1=O: PAMPA -5.58 (log10 cm/s).
Listed for COc1ccc(C[C@@H]2NC(=O)[C@@H](Cc3ccccc3)NC(=O)[C@@H](NC(=O)[C@@H](CC(C)C)N(C)C(=O)[C@@H]3CCCN3C(C)=O)[C@@H](C)OC(=O)[C@@H]3CCCN3C(=O)[C@H](CC(C)C)NC(=O)[C@@H](C)N(C)C(=O)[C@@H](CC(C)C)NC2=O)cc1: PAMPA -5.81 (log10 cm/s).
Listed for CCC[C@@H]1NC(=O)[C@@H](CCC)NC(=O)[C@@H](NC(=O)[C@@H](CC(C)C)N(C)C(=O)[C@@H]2CCCN2C(C)=O)[C@@H](C)OC(=O)[C@@H]2CCCN2C(=O)[C@H](CC(C)C)NC(=O)[C@@H](C)N(C)C(=O)[C@@H](Cc2cccc3ccccc23)NC1=O: PAMPA -5.39 (log10 cm/s).
Listed for CC(=O)N[C@@H]1C(=O)N2CCC[C@H]2C(=O)N(C)[C@H](CC(C)C)C(=O)N[C@@H](CC(C)C)C(=O)N[C@@H](CC(C)C)C(=O)N(C)[C@@H](CC(C)C)C(=O)N[C@@H](C)C(=O)N[C@@H](CC(C)C)C(=O)N2CCC[C@@H]2C(=O)O[C@@H]1C: PAMPA -6.79 (log10 cm/s).
Listed for CC[C@H]1NC(=O)[C@@H](NC(=O)[C@@H](CC(C)C)N(C)C(=O)[C@@H]2CCCN2C(C)=O)[C@@H](C)OC(=O)[C@@H]2CCCN2C(=O)[C@H](CC(C)C)NC(=O)[C@@H](C)N(C)C(=O)[C@@H](Cc2ccc(F)cc2)NC(=O)[C@H](Cc2ccc(OC)cc2)NC1=O: PAMPA -5.72 (log10 cm/s).
Listed for CC(=O)N1CCC[C@H]1C(=O)N(C)[C@H](CC(C)C)C(=O)N[C@@H]1C(=O)N[C@H](Cc2cccc3ccccc23)C(=O)N[C@@H](CCc2ccccc2)C(=O)N[C@H](CC(C)C)C(=O)N(C)[C@H](C)C(=O)N[C@@H](CC(C)C)C(=O)N2CCC[C@H]2C(=O)O[C@@H]1C: PAMPA -5.46 (log10 cm/s).
Listed for CC(=O)N1CCC[C@H]1C(=O)N[C@@H]1C(=O)N(C)[C@H](CC(C)C)C(=O)N[C@@H](CC(C)C)C(=O)N(C)[C@H](CC(C)C)C(=O)N[C@H](CC(C)C)C(=O)N[C@H](C)C(=O)N[C@@H](CC(C)C)C(=O)N2CCC[C@@H]2C(=O)O[C@@H]1C: PAMPA -5.76 (log10 cm/s).
Listed for CCC[C@@H]1NC(=O)[C@@H](CC2CCCCC2)NC(=O)[C@@H](NC(=O)[C@@H](CC(C)C)N(C)C(=O)[C@@H]2CCCN2C(C)=O)[C@@H](C)OC(=O)[C@@H]2CCCN2C(=O)[C@H](CC(C)C)NC(=O)[C@@H](C)N(C)C(=O)[C@@H](Cc2ccc(F)c(F)c2)NC1=O: PAMPA -5.74 (log10 cm/s).
Listed for CC(=O)N1CCC[C@H]1C(=O)N(C)[C@H](CC(C)C)C(=O)N[C@@H]1C(=O)N[C@H](Cc2ccccc2)C(=O)N[C@@H](Cc2ccc([N+](=O)[O-])cc2)C(=O)N[C@H](Cc2cccc3ccccc23)C(=O)N(C)[C@H](C)C(=O)N[C@@H](CC(C)C)C(=O)N2CCC[C@H]2C(=O)O[C@@H]1C: PAMPA -6.85 (log10 cm/s).
Listed for CC(=O)N1CCC[C@H]1C(=O)N(C)[C@H](CC(C)C)C(=O)N[C@@H]1C(=O)N[C@H](Cc2ccccc2)C(=O)N[C@@H](CCc2ccccc2)C(=O)N[C@H](Cc2ccc(F)cc2)C(=O)N(C)[C@H](C)C(=O)N[C@@H](CC(C)C)C(=O)N2CCC[C@H]2C(=O)O[C@@H]1C: PAMPA -5.77 (log10 cm/s).

The 3 lowest values of PAMPA among the entries above:

| compound | PAMPA (log10 cm/s) |
|---|---|
| CC(=O)N1CCC[C@H]1C(=O)N(C)[C@H](CC(C)C)C(=O)N[C@@H]1C(=O)N[C@H](CC(C)C)C(=O)N[C@@H](Cc2ccc(F)cc2)C(=O)N[C@H](CC2CCCCC2)C(=O)N(C)[C@H](C)C(=O)N[C@@H](CC(C)C)C(=O)N2CCC[C@H]2C(=O)O[C@@H]1C | -6.85 |
| CC(=O)N1CCC[C@H]1C(=O)N(C)[C@H](CC(C)C)C(=O)N[C@@H]1C(=O)N[C@H](Cc2ccccc2)C(=O)N[C@@H](Cc2ccc([N+](=O)[O-])cc2)C(=O)N[C@H](Cc2cccc3ccccc23)C(=O)N(C)[C@H](C)C(=O)N[C@@H](CC(C)C)C(=O)N2CCC[C@H]2C(=O)O[C@@H]1C | -6.85 |
| CC(=O)N[C@@H]1C(=O)N2CCC[C@H]2C(=O)N(C)[C@H](CC(C)C)C(=O)N[C@@H](CC(C)C)C(=O)N[C@@H](CC(C)C)C(=O)N(C)[C@@H](CC(C)C)C(=O)N[C@@H](C)C(=O)N[C@@H](CC(C)C)C(=O)N2CCC[C@@H]2C(=O)O[C@@H]1C | -6.79 |